Molecular target: human JAK1 (a.a. 837-1142) (Homo sapiens (Human), UniProt P23458)
Assay: In vitro JAK kinase assay (HTRF), JAK1
Type: biochemical
Settings: 1 mM ATP
Procedure: The catalytic activity of JAK1, JAK2 or JAK3 was assayed by measuring the phosphorylation of a biotinylated peptide. The phosphorylated peptide was detected by homogenous time resolved fluorescence (HTRF). […] Reactions are carried out at room temperature for 1 hour and then stopped with 20 μL 45 mM EDTA, 300 nM SA-APC, 6 nM Eu-Py20 in assay buffer (Perkin Elmer, Boston, Mass.). Binding to the Europium labeled antibody takes place for 40 minutes and HTRF signal was measured on a Fusion plate reader (Perkin Elmer, Boston, Mass.).

The chains behind the UniProt entries cited, without tags or fusion partners. Residues count along the entry.
UniProt P23458, 837-1142: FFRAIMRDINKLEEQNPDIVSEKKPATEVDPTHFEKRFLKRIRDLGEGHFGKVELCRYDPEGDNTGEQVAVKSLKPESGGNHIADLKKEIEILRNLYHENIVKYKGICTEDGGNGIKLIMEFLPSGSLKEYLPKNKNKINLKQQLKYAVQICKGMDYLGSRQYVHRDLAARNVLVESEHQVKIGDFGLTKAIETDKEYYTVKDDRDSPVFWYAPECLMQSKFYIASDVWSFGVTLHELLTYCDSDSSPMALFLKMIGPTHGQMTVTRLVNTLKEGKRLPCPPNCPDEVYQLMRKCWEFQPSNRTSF

Q: For `CN(C)Cc1cc(F)cc(OC2CCN(CC(CC#N)n3cc(-c4ncnc5[nH]ccc45)cn3)CC2)c1` (single isomer, unassigned) [Compound 14, 4-(4-{3-[(dimethylamino)methyl]-5-fluorophenoxy}piperidin-1-yl)-3-[4-(7H-pyrrolo[2,3-d]pyrimidin-4-yl)-1H-pyrazol-1-yl]butanenitrile], which IC50 is on record?
A: The IC50 was less than 10 nM.

Source: patent US11596632B2, “JAK1 pathway inhibitors for the treatment of gastrointestinal disease” (Incyte Corporation, priority 2018, dated 2023)
